This test concerns the target 5-hydroxytryptamine receptor 1B (Rattus norvegicus, UniProt P28564). Nature of the test: Inhibition of [3H]5-HT binding to 5-hydroxytryptamine 1B receptor. In a few lines:
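[3H]5-HT binding to 5-HT1 sites. The 5-HT1A component was distinguished by masking 5-HT1A sites with 1 µM S-spiroxatrine. Values are geometric means.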

Chains of the proteins cited; added tags and fusions are not shown.
UniProt P28564, whole entry: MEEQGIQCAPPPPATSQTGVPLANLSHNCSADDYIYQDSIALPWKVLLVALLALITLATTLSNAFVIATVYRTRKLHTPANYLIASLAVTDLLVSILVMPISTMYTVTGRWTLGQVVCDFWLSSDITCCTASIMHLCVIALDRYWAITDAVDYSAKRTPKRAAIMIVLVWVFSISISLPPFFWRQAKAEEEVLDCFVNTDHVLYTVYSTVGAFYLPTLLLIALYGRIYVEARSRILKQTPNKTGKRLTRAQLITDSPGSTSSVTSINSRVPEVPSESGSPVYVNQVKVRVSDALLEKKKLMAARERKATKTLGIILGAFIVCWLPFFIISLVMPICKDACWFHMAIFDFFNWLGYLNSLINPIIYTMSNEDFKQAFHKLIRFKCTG

Structures are written as SMILES.

Here are results for one molecule from ChEMBL document CHEMBL1127483, “Synthesis and structure activity relationships of cis- and trans-2,3,4,4a,9,9a-hexahydro-1H-indeno[2,1-c]pyridines for 5-HT receptor subtypes” (J Med Chem, 1994).

One may read the Ki as the equilibrium dissociation constant of an inhibitor or competing ligand from its target. Read a high Ki as lower affinity. The molecule `CCCN(CCC)C1CCc2cccc(O)c2C1` (stereo unspecified) [8-OH-DPAT] displayed a Ki of 2570 nM. In other words, the single-digit micromolar range.
